From patent US8653041B2, “Antibacterial aminoglycoside analogs” (Achaogen, Inc., priority 2010, dated 2014) come the findings set out here.

A short description of this data set: 14-day rat toxicology (nephrotoxicity), once-daily subcutaneous injection. Conditions: 14 days, Sprague-Dawley rat. As for the experimental part:
The study design utilized once-daily subcutaneous injection administration to the rat for 14 days and assessment of reversibility of any changes following a 28-day recovery period.
The dose volume administered to each animal was 1 mL/kg.

In the case of gentamicin, the “change in kidney function readouts serum creatinine and blood urea nitrogen (BUN)” value (10 mg/kg/day (low dose) subcutaneous) is recorded as “No statistically significant change”; the “change in kidney function readouts serum creatinine and blood urea nitrogen (BUN)” value (mid and high dose levels (30 mg/kg/day and 100 mg/kg/day) subcutaneous) is “statistically significant increase”.
